System: Rhodobacter capsulatus
Conditions: reversible toxicity

## n-butanol
  butanol tolerated before growth was affected: about 0.8%

Source: patent US20170298395A1, “AUTOTROPHIC HYDROGEN BACTERIA AND USES THEREOF” (Ohio State Innovation Foundation, priority 2011, published 2017)
